High-throughput results as filed in PubChem.
Nrf2 ARE act: Nrf2 pathway activation. AREc32 ARE-luciferase reporter (MCF7-derived line), luminescence, 24 h. Potency, µM (doses to about 46.1 µM), actives largely listed as activators. 0.31% of 410,000 active; also: nearly all actives have a fitted effect of over 65% in size
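ARE-driven firefly luciferase activity in AREc32 cells measured after a 24 hr compound exposure at 37 deg C, using Steady-Glo reagent and a 30 min room-temperature hold.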
ClpP mod: qHTS Assay for Activators of ClpP. ATP-dependent Clp protease proteolytic subunit (Bacillus subtilis (strain 168)), P80244. 1.9% of 340,000 active. Potency, µM (highest dose often 57.5 µM). AID 651965, 2013. purified B. subtilis ClpP, FRET peptide cleavage, 20 min; active = well fitted falling curve with a large enough effect; inconclusive = small, poorly fitted or top-dose-only effect; inactive = no such curve, though single readings can be large or run the other way; also: the source files actives as falling curves though it sought activators and does not explain the sign; nearly all actives have a fitted effect of over 65% in size
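ClpP 10 microg/mL final, pH 8 Tris/KCl buffer with BSA, glycerol, Tween-20; compound pinned in; FRET-FV substrate; RT 20 min; Ex320/Em430; ΔFRET vs ADEP 5.8 microM, DMSO, no enzyme.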
IL-2 act: activators of IL-2; IL-2 activation reporter assay, cell-based qHTS; stimulated with anti-CD3/CD4/CD28 beads; in transgenic mouse T cells; activation, % (series mostly up to about 46 µM); 0.065% of 360,000 active; in the data active = activation above about 50%; inconclusive = mostly about 30% to 49%
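Readout: EGFP and DsRed signals by fluorescent plate cytometry. Unstimulated transgenic mouse T cells received compound 60 min before antibody-bead stimulation, then incubated 18 h at 37 degrees C.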
Nrf2 inh: blocks Nrf2 signaling; A549 ARE-Fluc reporter, luciferase luminescence, 18-24 h; Potency, µM (series often up to 46 µM), actives largely listed as inhibitors; 2.1% of 360,000 active; also: nearly all actives have a fitted effect of over 60% in size
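Concentration-response testing used A549 ARE_Fluc cells at 5000 cells/well. Following an 18-24 h compound incubation, viability was read by fluorescence (Ex 405/Em 525) and luciferase output by luminescence.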
A549 tox: counter-screen for Nrf2 inhibitors: cytotoxicity in A549 cells. A549 ARE-Fluc cells, CellTiter-Fluor viability, 18-24 h. Potency, µM (top dose mostly 46 µM), hits mostly inhibitors. 0.16% of 390,000 active
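Cytotoxicity counterscreen: CellTiter-Fluor fluorescence was measured in A549 ARE_Fluc cells after 18-24 h of compound exposure in a concentration series. The subsequent BugLite luminescent read reports ARE-luciferase activity.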
miR-21 reporter: raises the signal of a miR-21 reporter | Potency, µM (doses to about 38.3 µM) | HeLa miR-21 FLuc reporter, luciferase, 48 h | AID 2288 | 340,000 tested, under 10 active; active = well fitted rising curve with a large enough effect; inconclusive = small, poorly fitted or top-dose-only effect; inactive = no such curve, though single readings can be large or run the other way;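 also: miR-21 action dims this reporter so a rising signal means less miR-21 action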
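HeLa miR-21-FLuc reporter line, endogenous miR-21; 2000 cells/well in DMEM/10% FBS; compound titration up to ~40uM final, 48 h, 37 degree Celsius; luciferase detection reagent, 15 min lysis, CCD luminescence.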
Numbers stand for hits; - = inactive; ? = inconclusive; . = no result given; [ ] = another dose, or the depositor's remark. Rows were chosen to be rich in hits. Some 3.7% of all compounds tested hit in one or more screens of this group. Unless noted, calls follow the shape of the dose curve; as a rule, active = well fitted curve in the direction sought with a large enough effect; inconclusive = small, poorly fitted or top-dose-only effect, or another doubt; inactive = no such curve, though single readings can be large; an effect the other way counts as inactive or inconclusive.

SMILES	Nrf2 ARE act	ClpP mod	IL-2 act	Nrf2 inh	A549 tox	miR-21 reporter
Cc1ccc2c(CC(=O)Nc3c(C(=O)c4ccc(F)cc4)oc4ccccc34)coc2c1	-	-	.	-	-	-
COc1cccc2c1OC[C@@H](CO)[C@H]2N(C)C(=O)Nc1ccc(Cl)cc1Cl	-	-	-	18µM	-	-
CCOc1ccccc1C(=O)Nc1cccc2ccc(C)nc12	-	32µM	.	?	-	-
CCOc1ccccc1C(=O)Nc1cccc2ccccc12	-	.	-	-	-	-
Cc1ccc(C(=O)N2CCN(c3ccccc3)CC2)cc1S(=O)(=O)N1CCCC1	-	-	-	21µM	-	-
Cc1ccc(C(=O)N2CCN(c3ccc(F)cc3)CC2)cc1S(=O)(=O)N1CCCCC1	-	-	-	12µM	-	-
CCOC(=O)c1ccc(S(=O)(=O)NCC(c2ccc(N(C)C)cc2)c2c[nH]c3ccccc23)cc1 (stereo not drawn)	-	25µM	-	?	-	-
O=C(O)c1cccc(-n2cccc2/C=C2/NC(=O)N(c3cccc(Cl)c3)C2=O)c1	-	.	-	-	?	-
COc1ccc(-n2cccc2/C=C2/NC(=O)N(c3cccc(Cl)c3)C2=O)cc1	-	25µM	-	-	-	-
CCOc1c2c(c(-c3ccc4c(c3)OCO4)c3cc(OC)c(OC)cc13)C(=O)OC2	.	-	.	1.8µM	2.9µM	.
COC(=O)c1cc2oc3ccccc3c2n1Cc1c(F)cccc1Cl	-	2.5µM	.	-	-	-
COC(=O)c1cc2oc3ccccc3c2n1Cc1ccccc1Cl	-	-	.	-	-	-
Cc1ccc(OCc2ccc(C(=O)Nc3c(C)nn(Cc4c(F)c(F)c(F)c(F)c4F)c3C)o2)c([N+](=O)[O-])c1	-	-	-	8.2µM	-	-
Cc1ccc(OCc2ccc(C(=O)NN)o2)c([N+](=O)[O-])c1	-	-	-	-	-	-
Cc1ccccc1NC(=O)CN1C(=O)S/C(=C\c2ccc(-c3cc(C(=O)O)ccc3C)o2)C1=O	-	.	77	-	-	-
Cc1ccc(C(=O)O)cc1-c1ccc(/C=C2\SC(=O)N(CC(=O)Nc3ccccc3)C2=O)o1	-	.	-	-	-	-
CCOCCn1cnc2sc(C(=O)Nc3ccccc3C(=O)OC)c(C)c2c1=O	-	-	.	.	-	-
CCOC(=O)c1ccc(Nc2c(CC)c(C)nc3ncnn23)cc1	-	-	-	26µM	-	-
Cc1cccc(CCNC(=O)CCc2c(C)nc3c(c(C)nn3-c3ccccc3)c2C)c1	-	32µM	.	23µM	-	-
Cc1ccc(N2CCN(C(=O)CCc3c(C)nc4ncnn4c3C)CC2)c(C)c1	-	-	.	18µM	-	-
CC(=O)c1ccc(NC(=O)CCc2c(C)nc3ncnn3c2C)cc1	-	28µM	-	-	-	-
COC(=O)c1ccc(NC(=O)CCc2c(C)nc3ncnn3c2C)cc1	-	-	-	?	-	-
Cc1ccc2c(c1)c1c(c(=O)n(-c3ccccc3)c(=O)n1CC(=O)N1CCCC1)n2C	-	-	.	.	-	-
O=C(OCC#CCSc1nnc(-c2ccccc2)o1)c1ccc(F)cc1	.	.	.	-	-	.
CCc1c(C)nc2ncnn2c1N1CCC(C(=O)Nc2ccc(C)cc2)CC1	-	-	-	13µM	-[1.84 µM]	-
SMILES	Nrf2 ARE act	ClpP mod	IL-2 act	Nrf2 inh	A549 tox	miR-21 reporter
CC(=O)c1ccc(NC(=O)CCc2c(C)nc3c(c(C)nn3-c3ccc(C)cc3)c2C)cc1	-	14µM	.	?	-	-
CCc1c(C)nc2ncnn2c1N1CCC(C(=O)Nc2ccccc2)CC1	-	-	-	-	-[1.84 µM]	-
CC(C)c1ccc(C(=O)CC2(O)C(=O)N(CCc3ccccc3)c3ccc(Cl)cc32)cc1 (stereo not drawn)	-	-	.	?	?	?
O=C1N/C(=C/c2ccc(N3CCCC3)cc2)C(=O)N1c1ccccc1	-	-	157	?	-	-
C=C(C)c1cccc(C(C)(C)NC(=O)N2CCN(c3ccc(OC)cc3)CC2)c1	-	32µM	-	-	-	-
Cc1noc2ncnc(N3CCCC(C(=O)NCCC(C)C)C3)c12 (stereo not drawn)	-	-	.	23µM	-	-
Cc1cccc(N(CC(=O)N(C)Cc2ccccc2)S(=O)(=O)c2ccccc2)c1C	-	-	.	-	-	-
N#C/C(=C/c1ccc(N2CCCC2)c([N+](=O)[O-])c1)c1nc2ccccc2[nH]1	-	-	-	-	-	-
N#C/C(=C\c1ccc(Oc2ccc(C(F)(F)F)cc2[N+](=O)[O-])cc1)c1nc2ccccc2[nH]1	-	-	-	16µM	?	-
Cc1cc(C)c(S(=O)(=O)NCC(c2ccc(N(C)C)cc2)N2CCOCC2)c(C)c1 (stereo not drawn)	-	-	.	.	-	-
COc1ccc(NC(=O)CN2C(=O)NC3(CCCc4ccccc43)C2=O)c(OC)c1 (stereo not drawn)	-	16µM	-	-	-	.
COc1ccccc1NC(=O)CN1C(=O)NC2(CCCc3ccccc32)C1=O (stereo not drawn)	-	-	-	-	-	.
Cc1cccc(C)c1Nc1c(-c2cccs2)nc2ncccn12	-	-	.	-	-	-
Cc1ccc2nc(-c3cccs3)c(Nc3c(C)cccc3C)n2c1	-	28µM	.	-	-	-
Cc1ccc2onc(CNC(=O)NCc3ccc(Cl)cc3)c2c1	-	-	.	-	-	-
O=C(/C=C/c1ccc([N+](=O)[O-])s1)N1CCCC1	?	-	-	21µM	-	?
Cc1ccc2cc(C(c3nnnn3C3CCCC3)N(Cc3ccccc3)Cc3ccco3)c(=O)[nH]c2c1 (stereo not drawn)	-	22µM	-	-	-	-
Nc1ccc(/C=C/c2nc3ccccc3s2)cc1	.	-	.	.	.	.
O=C(OCC#CCSc1nnc(-c2cccc3ccccc23)o1)c1ccco1	-	28µM	-	-	-	-
Cc1cc2c(s1)c1cnn(Cc3c(Cl)ccc(C)c3F)c(=O)c1n2C	.	.	.	-	-	.
O=C1CC(c2ccc3c(c2)OCO3)c2cc3c(cc2N1)OCCO3 (stereo not drawn)	-	-	-	-	-	-
Cc1ccc(C2CC(=O)Nc3cc4c(cc32)OCCO4)cc1Br (stereo not drawn)	-	-	.	18µM	-	-
Cn1cc(C(=O)NCc2ccc(Cl)cc2)c(=O)c2cc(S(=O)(=O)N3CCCCCC3)ccc21	-	-	.	-	-	-
CC1(C)SC(=S)N(/N=C/c2ccc(O)cc2)C1N(O)C(=O)Nc1ccc([N+](=O)[O-])cc1 (stereo not drawn)	-	-	-	16µM	?	-
